Columns and labels:
SKBR-3 cell line [1] = test: SRB assay, simultaneous combination treatment with JM-118 and herceptin, 96 hours; assay type: cell-based, human
SKBR-3 cell line [2] = test: SRB assay, sequential: herceptin 120 hours, followed by JM-118 24 hours; assay type: cell-based, human; conditions: Herceptin first

Herceptin: monoclonal antibody that binds HER2
Growth inhibition (SKBR-3 cell line [1]; JM118 0 + Herceptin 0.0020 μM): 41.4%
Growth inhibition (SKBR-3 cell line [1]; JM118 0 + Herceptin 0.0039 μM): 44.7%
Growth inhibition (SKBR-3 cell line [1]; JM118 0 + Herceptin 0.0078 μM): 48.0%
Growth inhibition (SKBR-3 cell line [1]; JM118 0 + Herceptin 0.0156 μM): 51.4%
Growth inhibition (SKBR-3 cell line [1]; JM118 0 + Herceptin 0.0313 μM): 54.8%
Growth inhibition (SKBR-3 cell line [2]; JM118 0 + Herceptin 0.0020 μM): 28.1%
Growth inhibition (SKBR-3 cell line [2]; JM118 0 + Herceptin 0.0039 μM): 30.9%
Growth inhibition (SKBR-3 cell line [2]; JM118 0 + Herceptin 0.0078 μM): 34.1%
Growth inhibition (SKBR-3 cell line [2]; JM118 0 + Herceptin 0.0156 μM): 37.4%
Growth inhibition (SKBR-3 cell line [2]; JM118 0 + Herceptin 0.0313 μM): 41.1%

— US8048888B2, “Anti-proliferative combination therapy using certain platinum-based chemotherapeutic agents and EGFR inhibitors or pyrimidine analogues” (Agennix AG, priority 2005, dated 2011)
